In patent US20240384236A1, “3D RECONSTITUTED BONE MARROW NICHE AND USES THEREOF” (The University of Hong Kong, priority 2023, published 2024):

System: primary AML cells
Test: Sample drug screening: viability of primary AML cells (PrestoBlue) after 24 h drug exposure in nine culture conditions
Conditions: Homo sapiens, read-out: IC50 daunorubicin

COc1cccc2c1C(=O)c1c(O)c3c(c(O)c1C2=O)C[C@@](O)(C(C)=O)C[C@@H]3O[C@H]1C[C@H](N)[C@H](O)[C@H](C)O1 [daunorubicin]
IC50: 2050 nM
